One compound from ChEMBL document CHEMBL5055621, “Synthesis and Characterization of the Novel Rodent-Active and CNS-Penetrant P2X7 Receptor Antagonist Lu AF27139” (J Med Chem, 2021) can be followed below.

The chains behind the UniProt entries cited, without tags or fusion partners. Where a name states a change or a piece, a line headed by the entry shows the natural chain unless it says otherwise.
UniProt Q99572: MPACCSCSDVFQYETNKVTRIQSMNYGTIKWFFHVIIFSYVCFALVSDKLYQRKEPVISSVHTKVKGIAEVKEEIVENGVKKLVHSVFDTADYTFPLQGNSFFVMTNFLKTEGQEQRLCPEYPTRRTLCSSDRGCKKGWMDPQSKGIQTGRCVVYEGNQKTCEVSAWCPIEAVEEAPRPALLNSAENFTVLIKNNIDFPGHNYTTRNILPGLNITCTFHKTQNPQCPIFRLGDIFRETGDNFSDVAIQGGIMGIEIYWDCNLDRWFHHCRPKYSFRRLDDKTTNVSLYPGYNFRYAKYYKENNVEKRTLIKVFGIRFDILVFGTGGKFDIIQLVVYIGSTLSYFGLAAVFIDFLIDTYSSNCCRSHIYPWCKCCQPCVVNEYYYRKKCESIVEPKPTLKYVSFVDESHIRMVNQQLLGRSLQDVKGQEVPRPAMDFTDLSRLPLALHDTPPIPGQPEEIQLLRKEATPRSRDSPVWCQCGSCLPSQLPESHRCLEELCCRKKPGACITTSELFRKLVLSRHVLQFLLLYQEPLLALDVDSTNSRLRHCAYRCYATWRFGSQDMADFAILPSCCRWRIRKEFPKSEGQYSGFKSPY

As a reminder, the Ki is the equilibrium dissociation constant of an inhibitor or competing ligand from its target. Broadly, the IC50 is the concentration needed to halve the response being measured.

Assay [1] deals with T1, P2X purinoceptor 7 (Homo sapiens, UniProt Q99572). The assay is described as follows: Displacement of [3H]-A-804598 from human P2X7 receptor expressed in HEK293 cell membrane by in vitro binding assay. It counts as cell membranes. (Displacement assays read how much labelled ligand stays bound in the presence of the test substance.)
Assay [2] addresses T2, P2X purinoceptor 7 (Mus musculus, UniProt Q9Z1M0).
T2 sequence (Q9Z1M0 whole entry): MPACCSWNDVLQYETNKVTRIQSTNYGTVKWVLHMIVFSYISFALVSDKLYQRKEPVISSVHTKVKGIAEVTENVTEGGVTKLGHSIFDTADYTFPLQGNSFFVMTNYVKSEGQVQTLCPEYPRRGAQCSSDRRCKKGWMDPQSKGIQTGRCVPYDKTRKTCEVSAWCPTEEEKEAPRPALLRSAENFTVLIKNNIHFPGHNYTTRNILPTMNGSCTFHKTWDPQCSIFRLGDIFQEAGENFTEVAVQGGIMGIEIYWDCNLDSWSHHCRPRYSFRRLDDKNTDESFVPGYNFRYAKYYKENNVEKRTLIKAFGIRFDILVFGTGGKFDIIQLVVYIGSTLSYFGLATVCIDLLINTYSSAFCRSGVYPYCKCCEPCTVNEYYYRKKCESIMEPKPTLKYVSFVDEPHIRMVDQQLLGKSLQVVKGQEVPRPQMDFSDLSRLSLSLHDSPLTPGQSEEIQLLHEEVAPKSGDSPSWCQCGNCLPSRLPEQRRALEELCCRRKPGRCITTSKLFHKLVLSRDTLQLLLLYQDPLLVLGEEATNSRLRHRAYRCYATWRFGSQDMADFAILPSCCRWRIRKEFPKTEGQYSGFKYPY
The assay is described as follows: Displacement of [3H]-A-804598 from mouse P2X7 receptor expressed in HEK293 cell membrane by in vitro binding assay. The format is cell membranes. An outline of the steps: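 Binding used membranes from P2X7-transfected HEK293 cells (rat 10 μg, human 40 μg, mouse 60 μg per well) with [3H]-A-804598.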

Assay [3] concerns the target T2, P2X purinoceptor 7. The assay is described as follows: Antagonist activity at mouse P2X7 receptor expressed in HEK293 cells assessed as inhibition of BzATP-induced calcium-flux measured after 60 mins by FLIPR analysis. The format is cell-based. The essentials: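 Stable rat or mouse P2X7 HEK293 cells in HBSS/20 mM HEPES/2.5 mM probenecid/0.05% BSA, pH 7.4, were loaded with Fluo-4 NW (37 °C 30 min, RT 30 min). Antagonist was preincubated before EC80 BzATP (rat 15 μM). After 30 min at RT, calcium fluorescence was read by FLIPR; n ≥ 3.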

The target in assay [4] is T1, P2X purinoceptor 7. The assay is described as follows: Antagonist activity at human P2X7 receptor expressed in HEK293 cells assessed as inhibition of BzATP-induced calcium-flux measured after 60 mins by FLIPR analysis. It counts as cell-based.

With `C[C@H](N/C(=N/C#N)Nc1cccc2ncccc12)c1ccccc1`, the Ki in assay [1] is 8.9 nM; in assay [2], 60 nM. Further, the IC50 in assay [3] is 34 nM; in assay [4], 32 nM.
